EP0637237B1, “CALCIUM RECEPTOR-ACTIVE MOLECULES” (BRIGHAM AND WOMEN'S HOSPITAL, INC., priority 1993, dated 1994)

Amino acid sequences for entries named in this document (tags omitted). Residues count along the entry.
UniProt P35384, 20-1085 limits assumed: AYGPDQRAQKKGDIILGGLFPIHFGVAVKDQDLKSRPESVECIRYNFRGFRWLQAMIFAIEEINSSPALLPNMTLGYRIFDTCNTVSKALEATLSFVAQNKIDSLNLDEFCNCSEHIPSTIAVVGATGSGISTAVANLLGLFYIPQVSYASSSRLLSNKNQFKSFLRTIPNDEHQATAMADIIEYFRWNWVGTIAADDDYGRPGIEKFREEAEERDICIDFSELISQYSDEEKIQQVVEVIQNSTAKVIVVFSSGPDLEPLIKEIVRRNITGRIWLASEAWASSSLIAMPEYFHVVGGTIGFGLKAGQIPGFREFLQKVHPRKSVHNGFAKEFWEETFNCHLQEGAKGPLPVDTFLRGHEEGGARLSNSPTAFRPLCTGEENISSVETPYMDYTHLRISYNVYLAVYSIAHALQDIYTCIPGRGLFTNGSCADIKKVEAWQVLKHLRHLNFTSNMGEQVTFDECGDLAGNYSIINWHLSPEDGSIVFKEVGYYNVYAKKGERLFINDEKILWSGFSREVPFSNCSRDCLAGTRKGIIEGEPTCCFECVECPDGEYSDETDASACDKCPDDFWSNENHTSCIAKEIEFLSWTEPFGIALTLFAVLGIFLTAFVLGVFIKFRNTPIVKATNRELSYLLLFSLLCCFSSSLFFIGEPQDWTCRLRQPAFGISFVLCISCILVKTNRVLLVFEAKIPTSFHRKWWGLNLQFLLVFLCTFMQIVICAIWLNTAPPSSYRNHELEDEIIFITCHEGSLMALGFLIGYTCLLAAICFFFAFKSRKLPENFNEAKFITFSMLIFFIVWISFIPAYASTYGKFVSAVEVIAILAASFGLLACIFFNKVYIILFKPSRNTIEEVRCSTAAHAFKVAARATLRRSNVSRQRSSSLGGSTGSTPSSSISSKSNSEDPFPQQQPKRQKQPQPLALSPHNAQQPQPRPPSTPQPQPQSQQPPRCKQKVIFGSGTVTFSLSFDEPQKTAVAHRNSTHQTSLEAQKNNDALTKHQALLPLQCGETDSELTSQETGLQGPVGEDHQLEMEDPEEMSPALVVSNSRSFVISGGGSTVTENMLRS

Molecular target: parathyroid cell Ca^2+ receptor (Bos taurus, UniProt P35384)
Assay: Mobilization of intracellular Ca2+ ([Ca2+]i, fura-2) in bovine parathyroid cells
Assay type: cell-based

Row | SMILES | [Ca2+]i response (fura-2-loaded bovine parathyroid cells, 0.5 mM extracellular Ca2+) | concentration at which the increase in [Ca2+]i evoked by extracellular Ca2+ is abolished | effect on the increase in [Ca2+]i elicited by extracellular Ca2+ (NPS 021 200 µM, [Ca2+] increased to 2 mM, Fig. 37)
1 | CCCCCCCCCC1CC(=O)NCCCN(C)CCCCN(C)CCCN1C (stereo not drawn) | rapid and transient increase in [Ca^2+]i |  | 
2 | NCCCCCCCCCCCCNC(=O)Cc1ccc(O)cc1O |  | around 500 àM | inhibited the increase in [Ca^2+]i elicited by extracellular Ca^2+
